The term pKa denotes the pH at which an ionisable group is half protonated. A lower pKa goes with a group that gives up its proton readily.

This data set can be described thus: Dissociation constant, pKa of the compound at pH 7.3. It is filed as physicochemical.

SMILES strings stand for the structures.

Compound `COc1cc(Cc2cnc(N)nc2N)cc(OC)c1OC` [TRIMETHOPRIM] displayed a pKa of 0.

The values above are taken from ChEMBL document CHEMBL3046441, “Importance of physicochemical properties for the design of new pesticides” (J Agric Food Chem, 2011).
